Laboratory results reported in article PMC2164977 (The Journal of Cell Biology, 1999).

Test system: degradation activity of chloroplast extract (ATP-dependent, soluble metallopeptidase activity)
Test: Degradation assay with chloroplast extract
Format: biochemical
Details: 20 mM ATP added back to extract preincubated with 100 units/ml apyrase

Nc1ncnc2c1ncn2[C@@H]1O[C@H](COP(=O)(O)OP(=O)(O)OP(=O)(O)O)[C@@H](O)[C@H]1O [ATP]
original subfragment detected after 30 min: 49%
